# Earlier results as cited in patent US9149465B2, “Isoxazolines as inhibitors of fatty acid amide hydrolase” (Infinity Pharmaceuticals, Inc., priority 2009, dated 2015).
# The chains behind the UniProt entries cited, without tags or fusion partners. Residues count along the entry.
# UniProt P97612, 30-579 limits assumed: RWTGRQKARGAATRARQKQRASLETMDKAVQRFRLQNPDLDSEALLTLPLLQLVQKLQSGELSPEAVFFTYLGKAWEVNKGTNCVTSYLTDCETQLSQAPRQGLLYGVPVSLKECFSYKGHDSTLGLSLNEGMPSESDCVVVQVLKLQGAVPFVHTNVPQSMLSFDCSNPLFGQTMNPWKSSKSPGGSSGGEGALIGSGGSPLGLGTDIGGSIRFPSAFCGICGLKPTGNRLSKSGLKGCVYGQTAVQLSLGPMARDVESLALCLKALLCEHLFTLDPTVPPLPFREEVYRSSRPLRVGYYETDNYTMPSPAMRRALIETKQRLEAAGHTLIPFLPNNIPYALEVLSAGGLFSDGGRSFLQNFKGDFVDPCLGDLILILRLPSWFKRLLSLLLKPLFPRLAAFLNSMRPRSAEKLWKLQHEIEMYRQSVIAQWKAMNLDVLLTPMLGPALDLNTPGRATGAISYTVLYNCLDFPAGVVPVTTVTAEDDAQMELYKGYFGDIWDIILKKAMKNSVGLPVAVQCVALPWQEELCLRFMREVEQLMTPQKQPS
# Molecular target: rat FAAH protein (Rattus norvegicus, UniProt P97612)
# Details: Bracey et al., Science (2002); cited from earlier work
smiles,measurement,value
CCCCC/C=C\C/C=C\C/C=C\C/C=C\CCCCOP(=O)(F)OOC (stereo not shown),covalent binding to FAAH in crystal structure,covalently bound to the side chain of Ser-241
